Literature values as cited in US20240050466A1, “CELLULAR HEALTH NUTRITIONAL PRODUCT” (GLAXOSMITHKLINE CONSUMER HEALTHCARE HOLDINGS (US) LLC, priority 2020, published 2024).

Settings: cited from earlier work

Substance: Vitamin E
- safe upper limit for adults: 300 mg/day
